Values of other authors in US12378302B2, “Fusion molecules and uses thereof” (Foundation Medicine, Inc., priority 2012, dated 2025).

Test system: tumors with FGFR1 fusions

Cc1ccc(C(=O)Nc2ccc(CN3CCN(C)CC3)c(C(F)(F)F)c2)cc1C#Cc1cnc2cccnn12 [ponatinib]
efficacy in preclinical studies of tumors with FGFR1 fusions: shown efficacy
